We go through six molecules from article PMC3115963, “Therapeutic Potential and Challenges of Targeting Receptor Tyrosine Kinase ROR1 with Monoclonal Antibodies in B-Cell Malignancies” (PLoS ONE, 2011).

The chains behind the UniProt entries cited, without tags or fusion partners. A line that says so, or that is headed by a name, gives the form on record, which may keep a tag or linker.
UniProt Q9Z139, other isoform, or with tags, fused parts or gaps: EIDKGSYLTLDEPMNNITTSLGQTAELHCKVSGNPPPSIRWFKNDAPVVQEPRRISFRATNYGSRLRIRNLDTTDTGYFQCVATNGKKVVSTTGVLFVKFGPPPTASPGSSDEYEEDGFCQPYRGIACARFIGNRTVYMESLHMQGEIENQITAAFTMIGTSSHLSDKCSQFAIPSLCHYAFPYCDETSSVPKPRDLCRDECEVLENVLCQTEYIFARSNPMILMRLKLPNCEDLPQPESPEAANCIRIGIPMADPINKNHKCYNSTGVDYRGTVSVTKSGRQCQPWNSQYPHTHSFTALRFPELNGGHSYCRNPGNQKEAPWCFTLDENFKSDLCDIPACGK

Conditions in all cases: both partners purified
For assay [1], the target named is T1, hROR2-Fc, human ROR2 Fc fusion protein (Homo sapiens (Human)., UniProt Q01974).
T1 construct: human ROR2
Put plainly: ELISA; purified Fab on the same panel of immobilized recombinant ROR1 proteins; data not shown. On the technique in general: In an ELISA, binding on a coated surface is turned into a signal by an enzyme label.

In assay [2] the target is T2, Fc-hROR1kr, Kr domain of human ROR1 fused to the Fc domain of human IgG1 (Homo sapiens (Human)., UniProt Q01973-1).
T2 construct: human ROR1, Kr domain, amino acids 312-391; template ROR1 isoform 1 TrueClone cDNA; two residues added after 391; C-terminal fusion to the dimeric Fc; source: HEK 293F, transiently transfected, purified from supernatant (Protein A); not shown: Fc (human IgG1), N-terminal, kept
Described as above.

The target in assay [3] is T3, Fc-hROR1ig, Ig domain of human ROR1 fused to the Fc domain of human IgG1 (Homo sapiens (Human)., UniProt Q01973-1).
T3 construct: human ROR1, Ig domain, amino acids 51-147; template ROR1 isoform 1 TrueClone cDNA; C-terminal fusion to the dimeric Fc; source: HEK 293F, transiently transfected, purified from supernatant (Protein A); not shown: Fc (human IgG1), N-terminal, kept
The description is as above.

The target of assay [4] is T4, Fc-hROR1fz, Fz domain of human ROR1 fused to the Fc domain of human IgG1 (Homo sapiens (Human)., UniProt Q01973-1).
T4 construct: human ROR1, Fz domain, amino acids 165-299; template ROR1 isoform 1 TrueClone cDNA; C-terminal fusion to the dimeric Fc; source: HEK 293F, transiently transfected, purified from supernatant (Protein A); not shown: Fc (human IgG1), N-terminal, kept
The description is as above.

Assay [5] has as its target T1, hROR2-Fc, human ROR2 Fc fusion protein. Put plainly: ELISA; 100 ng antigen coated per well; 500 ng/mL purified IgG1, 2 h at 37°C; goat anti-human kappa pAbs-HRP.
For assay [6], the target named is T2, Fc-hROR1kr, Kr domain of human ROR1 …. Described as above.
In assay [7] the target is T3, Fc-hROR1ig, Ig domain of human ROR1 …. The description is as above.
The target in assay [8] is T4, Fc-hROR1fz, Fz domain of human ROR1 …. The assay is described as above.
The target of assay [9] is T5, Fc-mROR1, shortened extracellular region of mouse ROR1 fused to the Fc domain of human IgG1 (Mus musculus (Mouse)., UniProt Q9Z139).
T5 construct: mouse ROR1, shortened extracellular region, amino acids 51-391 (custom synthesized cDNA); two residues added after 391; C-terminal fusion to the dimeric Fc; source: HEK 293F, transiently transfected, purified from supernatant (Protein A); not shown: Fc (human IgG1), N-terminal, kept
Put plainly: SPR; Biacore X100; Fc-hROR1 (669 RU) or Fc-mROR1 (429 RU) immobilized on CM5; Fab injected at 1.5 to 100 nM; HBS-EP+ pH 7.4, 30 µL/min; 1:1 Langmuir model. A general note: SPR reads the build-up and loss of mass on a sensor chip optically.

Assay [10] deals with T5, Fc-mROR1, shortened extracellular …. Put plainly: SPR; Biacore X100; Fc-hROR1 (669 RU) or Fc-mROR1 (429 RU) immobilized on CM5; bivalent IgG1 injected at 1.5 to 100 nM; HBS-EP+ pH 7.4, 30 µL/min; 1:1 Langmuir model; virtual affinity (avidity), Kd shown in quotes.

B1: chimeric rabbit/human Fab Y31, purified Fab-(His)6 (Fab, V domains shown)
VH: QSLEESGGRLVTPGTPLTLTCTVSGIDLNSHWMSWVRQAPGKGLEWIGIIAASGSTYYANWAKGRFTISKTSTTVDLRIASPTTEDTATYFCARDYGDYRLVTFNIWGPGTLVTVSS
VL: ELVMTQTPSSVSAAVGGTVTINCQASQSIGSYLAWYQQKPGQPPKLLIYYASNLASGVPSRFSGSGSGTEYTLTISGVQREDAATYYCLGSLSNSDNVFGGGTELEIL
Turning to B1, the binding result in [1], in assay [2], in assay [3] and in assay [4] was “no binding” throughout.

B2: chimeric rabbit/human IgG1 Y31 (antibody, V domains shown)
VH: B1 VH
VL: B1 VL
As for B2, the binding result in assay [5], in assay [6], in assay [7] and in assay [8] was “no binding (tested: 500 ng/mL)” in each case.

B3: chimeric rabbit/human IgG1 R11 (antibody, V domains shown)
VH: QSVKESEGDLVTPAGNLTLTCTASGSDINDYPISWVRQAPGKGLEWIGFINSGGSTWYASWVKGRFTISRTSTTVDLKMTSLTTDDTATYFCARGYSTYYGDFNIWGPGTLVTISS
VL: ELVMTQTPSSTSGAVGGTVTINCQASQSIDSNLAWFQQKPGQPPTLLIYRASNLASGVPSRFSGSRSGTEYTLTISGVQREDAATYYCLGGVGNVSYRTSFGGGTEVVVK
As to B3, the binding result in assay [5] is on record as “no binding (tested: 500 ng/mL)”.

B4: chimeric rabbit/human Fab R11, purified Fab-(His)6 (Fab, V domains shown)
VH: B3 VH
VL: B3 VL
In the case of B4, the binding result in assay [1] was “no binding”.

B5: chimeric rabbit/human Fab R12, purified Fab-(His)6 (Fab, V domains shown)
VH: QEQLVESGGRLVTPGGSLTLSCKASGFDFSAYYMSWVRQAPGKGLEWIATIYPSSGKTYYATWVNGRFTISSDNAQNTVDLQMNSLTAADRATYFCARDSYADDGALFNIWGPGTLVTISS
VL: ELVLTQSPSVSAALGSPAKITCTLSSAHKTDTIDWYQQLQGEAPRYLMQVQSDGSYTKRPGVPDRFSGSSSGADRYLIIPSVQADDEADYYCGADYIGGYVFGGGTQLTVT
On to B5, for which the binding result in assay [1] is reported as “no binding”; in [2], “no binding”; in assay [3], “no binding”; in [4] it was “no binding”; in assay [9], “no binding (tested: 100 nM)”.

B6: chimeric rabbit/human IgG1 R12 (antibody, V domains shown)
VH: B5 VH
VL: B5 VL
On to B6, for which the binding result in assay [5] was “no binding (tested: 500 ng/mL)”; in assay [6], “no binding (tested: 500 ng/mL)”; in assay [7] it was “no binding (tested: 500 ng/mL)”; in assay [8] it was “no binding (tested: 500 ng/mL)”; in assay [10], “no binding (tested: 100 nM)”.
